Molecules are shown by their SMILES. The list shows a part of the results, in another mix than the full data. Activity calls are given as the source filed them. Cut-off read from the data, not from the text of the source: active = activation above about 11%; inactive = the rest.

The chains behind the UniProt entries cited, without tags or fusion partners.
UniProt O95977, whole entry: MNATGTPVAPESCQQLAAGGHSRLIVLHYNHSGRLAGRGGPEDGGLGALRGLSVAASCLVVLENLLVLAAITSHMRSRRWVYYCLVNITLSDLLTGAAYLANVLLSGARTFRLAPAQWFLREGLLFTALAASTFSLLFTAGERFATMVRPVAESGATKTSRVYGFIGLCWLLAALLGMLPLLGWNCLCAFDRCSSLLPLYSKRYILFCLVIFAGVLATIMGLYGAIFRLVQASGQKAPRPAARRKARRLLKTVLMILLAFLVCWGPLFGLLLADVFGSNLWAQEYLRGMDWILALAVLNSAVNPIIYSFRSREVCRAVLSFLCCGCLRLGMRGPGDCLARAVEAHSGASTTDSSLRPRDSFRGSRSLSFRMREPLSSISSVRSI

This test concerns the target Sphingosine 1-phosphate receptor 4 (Homo sapiens) (UniProt O95977). The test can be described thus: activators of human S1P4 receptor – cell-based, primary screen (AID 1509).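 Note: 0% = DMSO vehicle and 100% = reference agonist.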 Conditions: S1P4-expressing cell line, agonist reporter assay; at 4.98 µM; hits give high values.
`c1ccc(CN2CCC(Nc3ccccc3)CC2)cc1`: the activation was inactive: -1.48%.

For `N#Cc1ccc(C(=O)NCC2(N3CCCCC3)CCCCC2)cc1`, the activation is inactive: 2.51%.

For the molecule `N/C(=N\O)c1c(N)no[n+]1[O-]`, the activation was inactive: 1.41%.

Regarding `O=C(OC1CN2CCC1CC2)C1c2ccccc2C=Cc2ccccc21` (centres undefined), the activation was inactive: -0.83%.

Turning to `COc1ccc(C(=O)NCC2(N3CCOCC3)CCCCC2)cc1OC`, the activation was inactive: -0.24%.

Take `CCC(CO)(C(=O)OC1CN2CCC1CC2)c1ccccc1` (centres undefined): the activation was inactive: -0.37%.

Regarding `COc1cc(OC)cc(C(=O)NCC2(N3CCOCC3)CCCCC2)c1`, the activation was inactive: -0.97%.

Turning to `CCCOc1ccc(C)cc1CN(CCCl)CCCl`, the activation was inactive: -2.78%.

Turning to `CCOc1ncccc1C(=O)NCC1(N2CCOCC2)CCCCC1`, the activation is inactive: 0.85%.

For the molecule `CC(C)(C)OC(=O)N1CCC(Nc2ccccc2)CC1`, the activation was inactive: 0.63%.

For the molecule `CCN1CCC(Nc2cccc(F)c2)CC1`, the activation is inactive: 0.08%.

`CN(C)c1ccc(C(=O)NCC2(N3CCCCC3)CCCCC2)cc1`: the activation was inactive: 0.66%.

Turning to `Cc1ccc(OCC(C)C)c(CN(CCCl)CCCl)c1`, the activation was inactive: 0.29%.

As to `CCOc1ccc(C)cc1CN(CCCl)CCCl`, the activation is inactive: 1.34%.

For `COc1ccc(NC2CCN(CCc3ccccc3)CC2)c(OC)c1`, the activation was inactive: -1.65%.

For `O=C(NCC1(N2CCOCC2)CCCCC1)c1cc2ccccc2o1`, the activation is inactive: -0.36%.

`CCOC(=O)N1CCC(Nc2ccc(OC)cc2)CC1`: the activation is inactive: 0%.

With `N#CC1(Nc2ccccc2)CCN(Cc2ccccc2)CC1`, the activation is inactive: 1.08%.

As for `O=C(OC1CN2CCC1CC2)C1c2ccccc2Oc2ccccc21` (centres undefined), the activation was inactive: 2.14%.

For `COc1ccc(C(=O)NCC2(N3CCCCC3)CCCCC2)c(OC)c1OC`, the activation is inactive: 0.32%.

Take `CN1CCC(Nc2cccc(F)c2)CC1`: the activation was inactive: -1.08%.

With `CN(C)c1cccc(C(=O)NCC2(N3CCCCC3)CCCCC2)c1`, the activation is inactive: 1.41%.

For `COc1ccc(CN(CCCl)CCCl)cc1Cl`, the activation was inactive: 0.17%.

As for `CC(C)c1ccc(NC2CCN(C(=O)OC(C)(C)C)CC2)cc1`, the activation was inactive: -1.6%.

Turning to `CN1CCN(CCOC(=O)C(O)(c2ccccc2)c2ccccc2)CC1`, the activation is inactive: -0.58%.

In the case of `COc1ccc(NC2CCN(C(=O)OC(C)(C)C)CC2)cc1`, the activation is inactive: -2.29%.

For the molecule `O=C(NCC1(N2CCOCC2)CCCCC1)c1cc(=O)[nH]c2ccccc12`, the activation was inactive: -2.15%.

Regarding `O=C(NCC1(N2CCCCC2)CCCCC1)c1cccc([N+](=O)[O-])c1`, the activation is inactive: -0.64%.

With `N#CC1(Nc2ccccc2)CCN(CCc2ccccc2)CC1`, the activation is inactive: -0.11%.
